Test results: patent US20160193148A1, “LIPOSOMAL FORMULATIONS FOR THE TREATMENT OF BACTERIAL INFECTIONS” (UNIVERSITY OF GEORGIA RESEARCH FOUNDATION, INC., priority 2013, published 2016)
Marks after values point to notes of the source that are not given here.

Tests used:
[1] = Repeated dose IV LG or FG: indices of renal injury and tolerability in foals
Method: Subsequently, twelve healthy foals were administered either LG or FG at 6.6 mg/kg IV q 24 hours for 7 doses, and urinary protein, creatinine, γ-glutamyltransferase, and electrolytes were measured on days 0, 3 and 7 to quantify renal injury. Concentrations of gentamicin were measured using HPLC-MS.
Each dose was diluted in 250 ml of sterile 0.9% saline and administered over 15 minutes via an indwelling 14 G catheter placed in a jugular vein. Blood samples for plasma separation and measurement of gentamicin concentrations were obtained on day 1 and on day 7 at the times listed for study 1. Bronchoalveolar lavage fluid was collected 2, 6 and 24 hours after the end of infusion on day 7. Urine was collected the day prior to the first drug dose (day 0) and again 2 hours after the end of the infusion on days 3 and 7. Foals were sedated with xylazine hydrochloride (1.1 mg/kg bwt IV) and anesthetized with ketamine (2.2 mg/kg bwt IV) to allow passage of a urinary catheter using aseptic techniques. Urinalysis was performed and urine and concurrently obtained plasma samples were submitted for measurement of creatinine, γ-glutamyltransferase (GGT), protein, calcium, chloride, magnesium, sodium, and potassium concentrations. Fractional excretion of electrolytes, urinary GGT to creatinine ratio, and urinary protein to creatinine ratios were calculated. Prior to analysis for gentamicin concentration by LC-MS, urine and plasma samples were centrifuged at 400×g for 10 minutes and the supernatant was frozen at −80° C. until assayed.
Normality and equality of variance of the data were assessed with use of the Shapiro-Wilk and Levene tests, respectively. Data that were not normally distributed were log or rank transformed. The paired t test or the Wilcoxon rank sum test was used to compare IV pharmacokinetic variables between LF and FG. The effects of drug (LG vs FG), administration route (IV vs nebulized) and the interactions between drug and administration route on PELF and BAL cell pharmacokinetic variables were assessed using a two-way ANOVA for repeated measurement. For study 2, the effects of drug (LG vs FG), time (day 0, day 3, and day 7), and the interactions between drug and time on renal indices were assessed using a two-way ANOVA with one factor repetition (time). When warranted, multiple pairwise comparisons were done by use of the Holm-Sidak test. The paired t test or the Wilcoxon rank sum test was used to compare IV pharmacokinetic variables obtained on day 1 to those obtained on day 7. Significance was set at P<0.05.

[2] = Plasma pharmacokinetics after single IV or nebulized dose in foals; details: IV 6.6 mg/kg
Method: Eight healthy 5-7-week-old Quarter Horse foals were randomly assigned to one of 4 groups using a balanced Latin-square design. Foals were considered healthy on the basis of physical examinations, complete blood cell counts and plasma biochemical profiles. […] The liposome gentamicin formulation was nebulized using Nortev FLEXINEB. For each treatment, gentamicin was administered over a period of 15 minutes. There was a washout period of 7-14 days between each treatment.
For the BAL collection, foals were sedated with xylazine and butorphanol. Concentrations of gentamicin were measured in plasma and in bronchoalveolar cells using HPLC-MS.
Eight foals received a single IV or nebulized dose (6.6 mg/kg bwt) of FG^h or LG in a balanced Latin square design. Beginning at 5-7 weeks of age, every foal received each of the 4 possible drug-route combinations with a 14-day washout period between each administration. Intravenous FG and LG were diluted in 250 ml of sterile 0.9% saline and administered via a jugular catheter as a constant rate infusion over 15 min. Nebulized FG and LG were administered by inhalation over 15 minutes via a commercial equine nebulizer. To ensure equivalent rate of delivery, FG was diluted to the same volume as LG with sterile 0.9% saline. Particle size of nebulized LG was verified using laser diffraction. Blood samples for plasma separation were obtained from a catheter placed in the contralateral jugular vein prior to each drug administration, and at 5, 10, 20, 30, 45 minutes and 1, 1.5, 2, 3, 4, 6, 8, 12, 16, 24 and 48 hours after the end of the 15 minute IV infusion or nebulization period. Bronchoalveolar lavage (BAL) fluid was collected at 2, 4, 8, 24, and 48 hours. Foals were sedated with xylazine hydrochloride (0.5 mg/kg bwt IV) and butorphanol tartrate (0.07 mg/kg bwt IV) prior to collection of BAL fluid. Prior to analysis for gentamicin concentration, blood samples were centrifuged at 400×g for 10 minutes and the resultant plasma frozen at −80° C. until assayed.
Briefly, gentamicin was extracted from plasma (250 μl) and urine (500 μl) using protein precipitation with an equal volume of ice-cold 90:10 acetonitrile: 0.2% formic acid (v/v). Extracted samples were centrifuged (2° C. at 10,000×g for 10 min) twice. Two-hundred microliters of the supernatants were transferred to polypropylene inserts for injection. The supernatant derived from the lyzed BAL cell pellet was transferred to polypropylene inserts for direct injection without further processing. […] An aliquot of the resultant supernatant was then mixed with an equal volume of ice-cold acetonitrile, centrifuged (2° C. at 10,000×g for 10 minutes) and 200 μl was transferred to polypropylene inserts for injection. […]

gentamicin sulfate [Free Gentamicin]
Urine GGT/(creatinine × 0.001) ratio ([1]; Day 0 (before first dose)): 2.70 ± 1.62 U/mmol | Urine protein/(creatinine × 0.001) ratio ([1]; Day 0 (before first dose)): 23.92 ± 4.61 g/mmol | Urine GGT/(creatinine × 0.001) ratio ([1]; Day 3): 3.04 ± 1.26 U/mmol | Urine protein/(creatinine × 0.001) ratio ([1]; Day 3): 40.53 ± 48.45 g/mmol | difference from baseline (day 0) in urine GGT/(creatinine × 0.001) ratio ([1]; Day 3): 0.34 ± 1.62^a U/mmol | Urine GGT/(creatinine × 0.001) ratio ([1]; Day 7): 8.75 ± 5.33 U/mmol | Urine protein/(creatinine × 0.001) ratio ([1]; Day 7): 34.68 ± 15.79 g/mmol | difference from baseline (day 0) in urine GGT/(creatinine × 0.001) ratio ([1]; Day 7): 6.05 ± 4.98^b U/mmol | Vdss ([2]; 8 foals): 0.24 ± 0.11 L/kg | Vdarea ([2]; 8 foals, Table 4, listed as FG, 6.6 mg/kg): 0.72 ± 0.32 L/kg | Vdarea ([2]; Table 1, 6.6 mg/kg): 0.7 ± 0.3 L/kg | Vdarea ([2]; Table 1, listed as free gentamicin, 6.6 mg/kg): 0.72 ± 0.32 L/kg
